According to patent US20040037843A1, “Inducing cellular immune responses to prostate cancer antigens using peptide and nucleic acid compositions” (priority 2003, published 2004):

Key:
HLA-A*6802 = HLA-A*6802 (Homo sapiens, UniProt P04439, A269V/D140Y/D185E/E176V/E277Q/E87N/F33Y/G231S/I121R/I166T/I218V/L180W/L300P/L318F/N151K/P208A/P217A/Q86R/R138H/R169H/S129P/T345S/V36M); experiment: HLA class I binding assay, purified HLA, inhibition of 125I-labelled probe peptide; conditions: A2 supermotif cross-reactive binding data
HLA-A*0201 = HLA-A*0201 (Homo sapiens, UniProt P04439, D140Y/D185E/D98H/E176V/E277Q/G131W/G231S/I119V/I121R/I166T/I218V/L300P/L318F/N151K/N90K/P208A/P217A/Q86G/Q94H/R138H/R169H/T345S); experiment: as above; conditions: A*[…], A2 supermotif cross-reactive binding data
HLA-A*0203 = HLA-A*0203 (Homo sapiens, UniProt P04439, A173T/D140Y/D185E/D98H/E277Q/G131W/G231S/I119V/I121R/I166T/I218V/L180W/L300P/L318F/N151K/N90K/P208A/P217A/Q86G/Q94H/R138H/R169H/T345S); experiment: as above; conditions: A*[…], A2 supermotif cross-reactive binding data
[1] = tested on: Jurkat-A2.1/Kb target cells; experiment: CTL induction in HLA transgenic mice by peptide or CTL/HTL conjugate, 51Cr release; design: species or system HLA-A*0201/Kb transgenic mice; conditions: immunogenicity in vivo, positive/tested
HLA-A*0206 = HLA-A*0206 (Homo sapiens, UniProt P04439, D140Y/D185E/D98H/E176V/E277Q/F33Y/G131W/G231S/I119V/I121R/I166T/I218V/L300P/L318F/N151K/N90K/P208A/P217A/Q86G/Q94H/R138H/R169H/T345S); experiment: HLA class I binding assay, purified HLA, inhibition of 125I-labelled probe peptide; conditions: A*[…], A2 supermotif cross-reactive binding data
[2] = tested on: HLA-A2 supertype molecules (A*0201, A*0202, A*0203, A*0206, A*6802); experiment: A2-supertype cross-reactive binding (number of the five alleles bound); design: species or system human
HLA-A*0202 = HLA-A*0202 (Homo sapiens, UniProt P04439, D140Y/D185E/D98H/E176V/E277Q/G131W/G231S/I119L/I121R/I166T/I218V/L180W/L300P/L318F/N151K/N90K/P208A/P217A/Q67R/Q86G/Q94H/R138H/R169H/T345S); experiment: HLA class I binding assay, purified HLA, inhibition of 125I-labelled probe peptide; conditions: A*[…], A2 supermotif cross-reactive binding data

IC50 (HLA-A*6802): > 10 µM
IC50 (HLA-A*0201): 0.217 µM
IC50 (HLA-A*0203): 0.014 µM
IC50 (HLA-A*0206): 0.411 µM
A2 Cross-Reactivity ([2]; number of the five A2-supertype alleles bound): 4
Cross-Reactivity (<200nM) ([2]; number of the five A2 supertype alleles bound at <200nM): 2
IC50 (HLA-A*0202): 0.0015 µM
Structure (SMILES): CC[C@H](C)[C@H](N)C(=O)N[C@@H](CCSC)C(=O)N[C@@H](Cc1ccc(O)cc1)C(=O)N[C@@H](CO)C(=O)N[C@@H](C)C(=O)N[C@@H](Cc1c[nH]cn1)C(=O)N[C@@H](CC(=O)O)C(=O)N[C@H](C(=O)N[C@H](C(=O)N[C@H](C(=O)O)C(C)C)[C@@H](C)O)[C@@H](C)O [Peptide 1097.05]
A2 in vivo [1]: 0/3
